# Measured affinities in a library of Ab-95 light chain variants

Reference: Engelhart et al. 2022, doi:10.1038/s41597-022-01779-4. File: FLAb, binding data.

All variants were tested on one target, the spike HR2 peptide PDVDLGDISGINAS (SARS-CoV-2).

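In library AAYL52, one, two or three CDR residues were substituted; doubles and triples were drawn at random. AlphaSeq pools MATa yeast showing the antibodies with MATalpha yeast showing the peptide. The frequency of each diploid, read from paired DNA barcodes, reflects how well the two displayed proteins bind. The ratio of observed to expected reads was calibrated, replicate by replicate, on BCL2-family standards whose Kd was known from biolayer interferometry. Each pool was mated in three replicate cultures.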

Parent scFv Ab-95: VH joined to VL by a (GGGGS)3 linker. Changes lie in the light chain CDRs alone.
VH: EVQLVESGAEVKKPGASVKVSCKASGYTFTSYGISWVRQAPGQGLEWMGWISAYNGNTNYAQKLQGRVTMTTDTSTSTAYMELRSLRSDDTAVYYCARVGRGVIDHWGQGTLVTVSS
VL: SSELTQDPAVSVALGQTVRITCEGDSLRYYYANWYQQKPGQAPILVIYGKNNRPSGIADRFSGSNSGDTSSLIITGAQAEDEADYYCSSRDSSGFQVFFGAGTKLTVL

Sequences are complete VL domains.
Every variant below is changed at E23 of the VL (sequential numbering).
Values are apparent Kd, the geometric mean of the replicates that gave a signal; lower means stronger binding.
As a blank, each scFv also met three strains without target: over library AAYL52, 28% of these pairings were detected, typically at 8.2 µM and seldom below 800 nM. Also given: how often the same scFv was detected with the empty control strains.
In this assay the parent's reference entry averaged 200 nM; its copy inside this library read 180 nM.

With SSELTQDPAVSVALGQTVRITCWGDDLRYYYANWYQQKPGQAPILVIYGKNNRPSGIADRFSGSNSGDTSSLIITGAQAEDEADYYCSSRDSSGFQVWFGAGTKLTVL the result was 910 nM (1 of 3 replicates; controls 1 of 9).
With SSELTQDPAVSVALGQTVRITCGGDSLRYYYAQWYQQKPGQAPILVIYGKNNRPSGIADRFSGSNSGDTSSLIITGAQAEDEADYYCSSRDSSDFQVFFGAGTKLTVL the result was 2.9 µM (1 of 3 replicates; controls 3 of 9).
With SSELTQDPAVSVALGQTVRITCRGDSLRYFYANWYQQKPGQAPILVIYGKNNRPSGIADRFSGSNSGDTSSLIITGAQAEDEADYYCSSRDSSVFQVFFGAGTKLTVL the result was 50 µM (3 of 3 replicates; controls 3 of 9).
With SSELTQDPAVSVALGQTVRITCCGWSLRYYYANWYQQKPGQAPILVIYGKNNRPSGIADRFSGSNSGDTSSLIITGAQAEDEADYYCSSRSSSGFQVFFGAGTKLTVL the result was 5.5 µM (1 of 3 replicates; controls 1 of 9).
With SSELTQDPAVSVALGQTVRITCQGDSLRYYYANWYQQKPGQAPILVIYGKNNRPSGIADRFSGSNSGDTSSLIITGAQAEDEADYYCSSRDSSGWQVFFGAGTKLTVL the result was 60 nM (3 of 3 replicates; controls 3 of 9).
With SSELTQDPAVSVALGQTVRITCDGDSRRYYYANWYQQKPGQAPILVIYGKNNRPSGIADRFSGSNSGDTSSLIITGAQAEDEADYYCSGRDSSGFQVFFGAGTKLTVL the result was 180 µM (1 of 3 replicates; controls 4 of 9).
With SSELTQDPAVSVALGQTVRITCAGDSLRYIYANWYQQKPGQAPILVIYGKNNRPSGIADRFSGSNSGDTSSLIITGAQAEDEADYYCSSRDSSGFQPFFGAGTKLTVL the result was 410 nM (3 of 3 replicates; controls 5 of 9).
With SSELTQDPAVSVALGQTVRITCSGDSLRYYWANWYQQKPGQAPILVIYGKNNRPSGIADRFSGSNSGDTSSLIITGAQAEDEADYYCSSRDSSGRQVFFGAGTKLTVL the result was 110 nM (3 of 3 replicates; controls 3 of 9).
With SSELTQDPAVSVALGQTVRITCIGDSLRYYRANWYQQKPGQAPILVIYGKNNRPSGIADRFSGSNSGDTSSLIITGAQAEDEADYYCSSRDSSGFQVRFGAGTKLTVL the result was 1.2 µM (3 of 3 replicates; controls 3 of 9).
With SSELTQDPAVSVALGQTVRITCYGDSLRYYYANWYQQKPGQAPILVIYGKNNRPSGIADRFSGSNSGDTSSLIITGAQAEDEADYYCYSRDSQGFQVFFGAGTKLTVL the result was 930 nM (3 of 3 replicates; controls 3 of 9).
With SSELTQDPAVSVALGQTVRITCVGDSLRYYYANWYQQKPGQAPILVIYGKNNPPSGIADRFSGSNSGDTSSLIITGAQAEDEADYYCSSRDSSGFQVFFGAGTKLTVL the result was 4.3 µM (3 of 3 replicates; controls 6 of 9).
With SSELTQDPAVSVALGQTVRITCMGDSLRYYYANWYQQKPGQAPILVIYGKWNRPSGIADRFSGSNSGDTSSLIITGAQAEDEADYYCSSRDRSGFQVFFGAGTKLTVL the result was 28 µM (2 of 3 replicates; controls 2 of 9).
With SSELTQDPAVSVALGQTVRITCPGDSLRTYYANWYQQKPGQAPILVIYGKNVRPSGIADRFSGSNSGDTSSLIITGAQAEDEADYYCSSRDSSGFQVFFGAGTKLTVL the result was 5.2 µM (3 of 3 replicates; controls 8 of 9).
With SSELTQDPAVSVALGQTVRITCFMRSLRYYYANWYQQKPGQAPILVIYGKNNRPSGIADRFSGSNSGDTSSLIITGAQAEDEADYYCSSRDSSGFQVFFGAGTKLTVL the result was 26 µM (1 of 3 replicates; controls 4 of 9).
With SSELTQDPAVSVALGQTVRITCTGDSLRMYYANWYQQKPGQAPILVIYGKGNRPSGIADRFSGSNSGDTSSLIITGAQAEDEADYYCSSRDSSGFQVFFGAGTKLTVL the result was 190 nM (3 of 3 replicates; controls 5 of 9).
With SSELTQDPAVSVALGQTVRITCYGDSLRYYYANWYQQKPGQAPILVIYGQNNRPSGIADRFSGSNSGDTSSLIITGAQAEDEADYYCSSRTSSGFQVFFGAGTKLTVL the result was 460 nM (3 of 3 replicates; controls 3 of 9).
With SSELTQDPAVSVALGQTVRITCNGDSLRYYLANWYQQKPGQAPILVIYGKNNRPSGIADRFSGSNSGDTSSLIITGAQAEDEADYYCSSRDSVGFQVFFGAGTKLTVL the result was 10 µM (2 of 3 replicates; controls 1 of 9).